Values quoted from earlier work as cited in patent publication US10093983B2 (priority 2011, dated 2018).

By UniProt entry, the sequences of proteins in these tests, tags left out.
UniProt P03372, whole entry D351Y: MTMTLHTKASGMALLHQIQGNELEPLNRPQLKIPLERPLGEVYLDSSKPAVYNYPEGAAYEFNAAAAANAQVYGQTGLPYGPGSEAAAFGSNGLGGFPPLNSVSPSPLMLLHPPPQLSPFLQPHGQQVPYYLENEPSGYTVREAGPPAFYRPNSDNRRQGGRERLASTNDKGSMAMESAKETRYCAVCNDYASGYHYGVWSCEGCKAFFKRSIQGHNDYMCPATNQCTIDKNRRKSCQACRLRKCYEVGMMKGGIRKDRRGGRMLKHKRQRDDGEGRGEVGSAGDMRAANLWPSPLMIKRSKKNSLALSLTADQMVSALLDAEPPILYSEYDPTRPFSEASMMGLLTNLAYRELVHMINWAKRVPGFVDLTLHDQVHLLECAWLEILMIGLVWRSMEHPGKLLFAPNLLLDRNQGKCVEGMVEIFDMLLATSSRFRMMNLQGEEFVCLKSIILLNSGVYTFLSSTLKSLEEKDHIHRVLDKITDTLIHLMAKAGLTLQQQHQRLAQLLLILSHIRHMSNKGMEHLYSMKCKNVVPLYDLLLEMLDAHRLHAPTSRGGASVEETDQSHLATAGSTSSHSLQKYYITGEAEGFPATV

Target: D351Y or D351E mutant ESR1 (Homo sapiens, UniProt P03372, D351Y)
Details: receptor with D351Y or D351E mutation

CC/C(=C(\c1ccc(O)cc1)c1ccc(/C=C/C(=O)O)cc1)c1ccccc1 [GW7604]
response of the mutant receptor to SERM therapy: estrogenic response
